Patent US9376387B2 (priority 2013, dated 2016)

Test system: Peripheral Anionic Site (PAS) of AChE

SMILES	Binding to the PAS measured by propidium iodide displacement [%]	Binding to the PAS: % of Propidium Iodide Displacement [%]
COc1cc2c(cc1OC)C(=O)C(Cc1cc[n+](Cc3ccccc3)cc1C(C)=O)C2.[Br-] (centres unmarked) [Compound 33, 1-Benzyl-3-actyl-4-(5,6-dimethoxy-1-oxo-2,3-dihydro-1H-inden-2-yl)methyl pyridinium bromide]	23	23
COc1cc2c(cc1OC)C(=O)C(CC1C=CN(Cc3cccc(Cl)c3)C=C1C(C)=O)C2 (centres unmarked) [Compound 77, 2-[[3-acetyl-1-[(3-chlorophenyl)methyl]-4H-pyridin-4-yl]methyl]-5,6-dimethoxy-indan-1-one]	18	–
COc1ccc2c(c1)CCC(Cc1cc[n+](Cc3ccccc3)cc1C(C)=O)C2=O.[Cl-] (centres unmarked) [Compound 82, 2-[(3-acetyl-1-benzyl-pyridin-1-ium-4-yl)methyl]-6-methoxy-tetralin-1-one chloride]	22	–
COc1ccc2c(c1)CCC(Cc1cc[n+](Cc3ccccc3)cc1Br)C2=O.[Br-] (centres unmarked) [Compound 117, 2-[(1-benzyl-3-bromo-pyridin-1-ium-4-yl)methyl]-6-methoxy-tetralin-1-one bromide]	20	–
COc1ccc2c(c1)CCC(Cc1cc[n+](Cc3cccc(C)c3)cc1Br)C2=O.[Br-] (centres unmarked) [Compound 118, 2-[[3-bromo-1-(m-tolylmethyl)pyridin-1-ium-4-yl]methyl]-6-methoxy-tetralin-1-one bromide]	19	–
COc1ccc2c(c1)CCC(Cc1cc[n+](Cc3ccccc3)cc1C(C)=O)C2=O.[Br-] (centres unmarked) [Compound 119, 2-[(3-acetyl-1-benzyl-pyridin-1-ium-4-yl)methyl]-6-methoxy-tetralin-1-one bromide]	23	–
COc1ccc2c(c1)CCC(Cc1cc[n+](Cc3cccc(C)c3)cc1C(C)=O)C2=O.[Br-] (centres unmarked) [Compound 120, 2-[[3-acetyl-1-(m-tolylmethyl)pyridin-1-ium-4-yl]methyl]-6-methoxy-tetralin-1-one bromide]	27	–
COc1ccc2c(c1)CCC(Cc1cc[n+](Cc3ccccc3C)cc1C(C)=O)C2=O.[Br-] (centres unmarked) [Compound 121, 2-[[3-acetyl-1-(o-tolylmethyl)pyridin-1-ium-4-yl]methyl]-6-methoxy-tetralin-1-one bromide]	24	–
COc1ccc2c(c1)CCC(Cc1cc[n+](Cc3cccc(Cl)c3)cc1C(C)=O)C2=O.[Br-] (centres unmarked) [Compound 122, 2-[[3-acetyl-1-[(3-chlorophenyl)methyl]pyridin-1-ium-4-yl]methyl]-6-methoxy-tetralin-1-one bromide]	20	–
COc1ccc2c(c1)CCC(Cc1cc[n+](Cc3cccc([N+](=O)[O-])c3)cc1C(C)=O)C2=O.[Br-] (centres unmarked) [Compound 123, 2-[[3-acetyl-1-[(3-nitrophenyl)methyl]pyridin-1-ium-4-yl]methyl]-6-methoxy-tetralin-1-one bromide]	22	–
COc1ccc2c(c1)CCC(Cc1cc[n+](Cc3cccc(C(F)(F)F)c3)cc1C(C)=O)C2=O.[Br-] (centres unmarked) [Compound 124, 2-[[3-acetyl-1-[[3-(trifluoromethyl)phenyl]methyl]pyridin-1-ium-4-yl]methyl]-6-methoxy-tetralin-1-one bromide]	25	–
COc1ccc2c(c1)CCC(Cc1cc[n+](Cc3ccccc3[N+](=O)[O-])cc1C(C)=O)C2=O.[Br-] (centres unmarked) [Compound 125, 2-[[3-acetyl-1-[(2-nitrophenyl)methyl]pyridin-1-ium-4-yl]methyl]-6-methoxy-tetralin-1-one bromide]	23	–
COc1ccc2c(c1)CCC(Cc1cc[n+](Cc3ccccc3Cl)cc1C(C)=O)C2=O.[Br-] (centres unmarked) [Compound 126, 2-[[3-acetyl-1-[(2-chlorophenyl)methyl]pyridin-1-ium-4-yl]methyl]-6-methoxy-tetralin-1-one bromide]	22	–
COc1ccc2c(c1)CCC(Cc1cc[n+](Cc3ccccc3F)cc1C(C)=O)C2=O.[Br-] (centres unmarked) [Compound 127, 2-[[3-acetyl-1-[(2-fluorophenyl)methyl]pyridin-1-ium-4-yl]methyl]-6-methoxy-tetralin-1-one bromide]	21	–
COc1ccc2c(c1)CCC(Cc1cc[n+](Cc3cccc(F)c3)cc1C(C)=O)C2=O.[Br-] (centres unmarked) [Compound 128, 2-[[3-acetyl-1-[(3-fluorophenyl)methyl]pyridin-1-ium-4-yl]methyl]-6-methoxy-tetralin-1-one bromide]	23	–
COc1ccc2c(c1)CCC(Cc1cc[n+](Cc3ccc(F)cc3)cc1C(C)=O)C2=O.[Br-] (centres unmarked) [Compound 129, 2-[[3-acetyl-1-[(4-fluorophenyl)methyl]pyridin-1-ium-4-yl]methyl]-6-methoxy-tetralin-1-one bromide]	22	–
COc1ccc2c(c1)CCC(Cc1cc[n+](Cc3ccc(C)cc3)cc1C(C)=O)C2=O.[Br-] (centres unmarked) [Compound 130, 2-[[3-acetyl-1-(p-tolylmethyl)pyridin-1-ium-4-yl]methyl]-6-methoxy-tetralin-1-one bromide]	23	–

SMILES	Binding to the PAS measured by propidium iodide displacement [%]	Binding to the PAS: % of Propidium Iodide Displacement [%]
COc1ccc2c(c1)CCC(Cc1cc[n+](Cc3ccc(Cl)cc3)cc1C(C)=O)C2=O.[Br-] (centres unmarked) [Compound 131, 2-[[3-acetyl-1-[(4-chlorophenyl)methyl]pyridin-1-ium-4-yl]methyl]-6-methoxy-tetralin-1-one bromide]	19	–
COc1cc2c(cc1OC)C(=O)C(Cc1cc[n+](Cc3ccccc3)cc1C(C)=O)CC2.[Br-] (centres unmarked) [Compound 132, 2-[(3-actyl-1-benzyl-pyridin-1-ium-4-yl)methyl]-6,7-dimethoxy-tetralin-1-one bromide]	24	–
COc1cc2c(cc1OC)C(=O)C(Cc1cc[n+](Cc3ccccc3)cc1F)CC2.[Br-] (centres unmarked) [Compound 133, 2[(1-benzyl-3-fluoro-pyridin-1-ium-4-yl)methyl]-6,7-dimethoxy-tetralin-1-one bromide]	18	–
CC(=O)c1c[n+](Cc2ccccc2C)ccc1CC1Cc2cc(Cl)ccc2C1=O.[Br-] (centres unmarked) [Compound 136, 2-[[3-acetyl-1-(o-tolylmethyl)pyridin-1-ium-4-yl]methyl]-5-chloro-indan-1-one bromide]	20	–
COc1ccc2c(c1)CC(Cc1cc[n+](Cc3ccccc3C)cc1C(C)=O)C2=O.[Br-] (centres unmarked) [Compound 138, 2-[[3-acetyl-1-(o-tolylmethyl)pyridin-1-ium-4-yl]methyl]-5-methoxy-indan-1-one bromide]	23	–
CC(=O)c1c[n+](Cc2ccccc2C)ccc1CC1Cc2cc3c(cc2C1=O)OCO3.[Br-] (centres unmarked) [Compound 139, 6-[[3-acetyl-1-(o-tolylmethyl)pyridin-1-ium-4-yl]methyl]-5,6-dihydrocyclopenta[f][1,3]benzodioxol-7-one bromide]	19	–
COc1cc2c(cc1OC)C(=O)C(Cc1cc[n+](Cc3ccccc3Cl)cc1Br)C2.[Br-] (centres unmarked) [Compound 140, 2-[[3-bromo-1-[(2-chlorophenyl)methyl]pyridin-1-ium-4-yl]methyl]-5,6-dimethoxy-indan-1-one bromide]	21	–
COc1cc2c(cc1OC)C(=O)C(Cc1cc[n+](Cc3ccccc3C)cc1Br)C2.[Br-] (centres unmarked) [Compound 141, 2-[[3-bromo-1-(o-tolylmethyl)pyridin-1-ium-4-yl]methyl]-5,6-dimethoxy-indan-1-one bromide]	20	–
COc1cc2c(cc1OC)C(=O)C(Cc1cc[n+](Cc3ccccc3C)cc1C(C)=O)C2.[Br-] (centres unmarked) [Compound 142, 2-[[3-acetyl-1-(o-tolylmethyl)pyridin-1-ium-4-yl]methyl]-5,6-dimethoxy-indan-1-one bromide]	18	–
COc1cc2c(cc1OC)C(=O)C(Cc1cc[n+](Cc3cccc(Cl)c3)cc1C(C)=O)C2.[Br-] (centres unmarked) [Compound 144, 2-[[3-acetyl-1-[(3-chlorophenyl)methyl]pyridin-1-ium-4-yl]methyl]-5,6-dimethoxy-indan-1-one bromide]	16	–
COc1cc2c(cc1OC)C(=O)C(Cc1cc[n+](Cc3ccccc3)cc1Br)C2.[Br-] (centres unmarked) [Compound 145, 2-[(1-benzyl-3-bromo-pyridin-1-ium-4-yl)methyl]-5,6-dimethoxy-indan-1-one bromide]	16	–
COc1cc2c(cc1OC)C(=O)C(Cc1cc[n+](Cc3cccc(C)c3)cc1Br)C2.[Br-] (centres unmarked) [Compound 146, 2-[[3-bromo-1-(m-tolylmethyl)pyridin-1-ium-4-yl]methyl]-5,6-dimethoxy-indan-1-one bromide]	18	–
COc1cc2c(cc1OC)C(=O)/C(=C/c1cc[n+](Cc3ccccc3)cc1C(C)=O)C2 [Compound 149, (2E)-2-[(3-actyl-1-benzyl-pyridin-1-ium-4-yl)methylene]-5,6-dimethoxy-indan-1-one bromide]	23	–
CC(=O)c1c[n+](Cc2ccccc2C)ccc1CC1Cc2cc(C)c(C)cc2C1=O.[Br-] (centres unmarked) [Compound 152, 2-[[3-acetyl-1-(o-tolylmethyl)pyridin-1-ium-4-yl]methyl]-5,6-dimethyl-indan-1-one bromide]	18	–
COc1ccc2c(c1)CCC(CC1C=CN(Cc3cccc(F)c3)C=C1C(C)=O)C2=O (centres unmarked) [Compound 156, 2-[[3-acetyl-1-[(3-fluorophenyl)methyl]-4H-pyridin-4-yl]methyl]-6-methoxy-tetralin-1-one]	26	–
COc1ccc2c(c1)CCC(CC1C=CN(Cc3ccccc3Cl)C=C1C(C)=O)C2=O (centres unmarked) [Compound 157, 2-[[3-acetyl-1-[(2-chlorphenyl)methyl]-4H-pyridin-4-yl]methyl]-6-methoxy-tetralin-1-one]	15	–
COc1cc2c(cc1OC)C(=O)C(CC1C=CN(Cc3ccccc3)C=C1C(C)=O)CC2 (centres unmarked) [Compound 162, 2-[(3-acetyl-1-benzyl-4H-pyridin-4-yl)methyl]-6,7-dimethoxy-tetralin-1-one]	16	–
